This note sets out measurements from publication PMC4401096 (Scientific Reports, 2015).

In the assay the target is T1, UGT1A3 (Homo sapiens, UniProt P35503).
T1 sequence (P35503 29-534): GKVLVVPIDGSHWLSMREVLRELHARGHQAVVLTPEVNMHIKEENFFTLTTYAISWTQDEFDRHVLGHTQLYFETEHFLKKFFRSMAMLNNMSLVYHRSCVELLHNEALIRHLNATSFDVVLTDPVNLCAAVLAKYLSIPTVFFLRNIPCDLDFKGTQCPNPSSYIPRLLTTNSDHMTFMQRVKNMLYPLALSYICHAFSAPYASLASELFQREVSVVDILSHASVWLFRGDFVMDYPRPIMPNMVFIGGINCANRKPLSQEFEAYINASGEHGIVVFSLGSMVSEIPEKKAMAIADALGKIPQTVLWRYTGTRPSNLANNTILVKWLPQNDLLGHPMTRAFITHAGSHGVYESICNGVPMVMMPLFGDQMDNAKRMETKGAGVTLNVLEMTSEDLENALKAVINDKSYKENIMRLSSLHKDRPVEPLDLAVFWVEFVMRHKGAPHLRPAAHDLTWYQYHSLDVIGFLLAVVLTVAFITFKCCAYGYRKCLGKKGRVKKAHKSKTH
The conditions noted are these: HLMs, substrate concentration 60 μM; phenylbutazone 500 μM, glycyrrhetinic acid 50 μM, β-estradiol 100 μM.

For `CCCCC1C(=O)N(c2ccccc2)N(c2ccccc2)C1=O` [phenylbutazone], the “inhibition of the formation of M-2 (16-O-glucuronate)” value is given as “significantly inhibited”.
